Laboratory results from patent publication US20140271648A1 (Janssen / Centocor, published 2014).

B1: IFWM43 (antibody, V domains shown)
VH: QVQLVQSGAEVKKPGSSVKVSCKASGGTFSSYAISWVRQAPGQGLEWMGGIIPIFGTANYAQKFQGRVTITADESTSTAYMELSSLRSEDTAVYYCARDSWGSYYAALDYWGQGTLVTVSS
VL: not shown
notes: Fab from a pIX phage display library, converted to human IgG1 mAb; also called anti IFNα/ω mAb M43
B2: C2595 (antibody, V domains shown)
VH: EVQLQQSGGDLVKPGGSLKLSCAASGFTFSSYGMSWVRQTPDKRLDWVSIITSGGSYTYYPDSVKGRFTISRDNAKNTLYLQMSSLKSEDTAMYYCARHAEGGGNYDYAMDYWGQGTSVTVSS
VL: DIVMTQAAFSNPVTLGTSASISCRSSKSLLHSNGITYLYWYLQKPGQSPQLLIYQMSNLASGVPDRFSSSGSGIDFTLRISRVEAEDVGAYYCAQNLELPFTFGSGTKLEIK
B3: M3239 (antibody, human IgG1, V domains shown)
VH: B2 VH
VL: B2 VL
notes: C2595 variable regions transferred to human IgG1 constant region; also called human/mouse chimeric IgG1 derived from c2595

Key:
[1] = target: T1, human IFNαB2 (human, UniProt P32881 24-189); assay: SPR (ProteOn); mAb captured on anti-human Fc, IFN as analyte
T1 construct: also called Alpha B2 (alpha 8); IFNα8

[2] = target: T1, human IFNαB2; assay: cell-based or functional assay

Row | Binder | Kd [1] [nM] | IC50, ISRE reporter gene assay [2] [nM]
1 | B1 | 0.9 | 25.9
2 | B2 | – | 11.1
3 | B3 | 32.2 | –
